We go through one molecule from patent publication US20070270350A1, “Methods and Compositions for the Prevention and Treatment of Inflammatory Diseases or Conditions” (MUSC FOUNDATION FOR RESEARCH DEVELOPMENT, priority 2003, published 2007).

The nature of this experiment: Comparison of biology of IFN-β, GA and statin + GSNO (Table 2). The source says:
FIGS. 28-52 provide additional data that show the effectiveness of statins in treating a variety of inflammatory diseases such as multiple sclerosis, spinal cord injury, stroke, and kinic acid induced seizures. Additionally, Table 2 provides data concerning the treatment of multiple sclerosis (MS) with statins as compared to two other approved MS drugs. The known drugs that were used were IFN-β and glatiramer acetate (GA) and their effects were compared with the combination of a statin+GSNO in a stroke model.

B1: IFN-β: approved MS drug used for comparison (protein, UniProt P01574 22-187, looked up)
Interferon beta: MSYNLLGFLQRSSNFQCQKLLWQLNGRLEYCLKDRMNFDIPEEIKQLQQFQKEDAALTIYEMLQNIFAIFRQDSSSTGWNETIVENLLANVYHQINHLKTVLEEKLEKEDFTRGKLMSSLHLKRYYGRILHYLKAKEYSHCAWTIVRVEILRNFYFINRLTGYLRN
B1: the “Decrease expression of adhesion molecules” value was “Yes”, the Decrease inflammatory cytokines result is on record as “Yes”, the “Decreased expression of MHCII” value is on record as “Yes” and the “Excludes leukocytes from entering CNS” value is on record as “Yes”. The “Inhibition of MMPs” value is on record as “Yes”, the “Inhibition of chemokine expression” value is “Yes”, the “Inhibition of clonal expression of co-stimulatory molecules” value was “Yes” and the “Interferences with T-cell activation” value is “Yes”. Also, the “Leukocyte trafficking across the blood brain barrier (BBB)” value was “Yes”, the Neuroprotection result is recorded as “Not clear”, the “Protection of BBB” value is on record as “Yes” and the “Reduced level of co-stimulatory molecules” value was “Yes”. In addition, the “Th1 to Th2 deviation” value was “Yes”.
